This note sets out measurements from publication PMC10708259 (Molecules, 2023).

Chains of the proteins cited; added tags and fusions are not shown.
UniProt P35372, whole entry, looked up: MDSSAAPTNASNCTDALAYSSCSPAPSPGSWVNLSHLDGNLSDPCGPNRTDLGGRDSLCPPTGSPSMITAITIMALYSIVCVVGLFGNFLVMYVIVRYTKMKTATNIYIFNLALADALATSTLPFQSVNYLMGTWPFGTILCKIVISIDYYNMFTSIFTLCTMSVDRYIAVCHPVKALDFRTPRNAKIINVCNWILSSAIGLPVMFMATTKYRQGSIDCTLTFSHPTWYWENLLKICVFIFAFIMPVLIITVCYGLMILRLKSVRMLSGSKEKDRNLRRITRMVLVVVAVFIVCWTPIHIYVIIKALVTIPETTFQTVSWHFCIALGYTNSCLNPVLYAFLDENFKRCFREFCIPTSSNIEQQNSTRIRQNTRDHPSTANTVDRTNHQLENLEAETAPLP

The assay has as its target human μ-opioid receptor (OPRM1) (Homo sapiens, UniProt P35372). Put plainly: Forskolin-induced cAMP accumulation assay, MOR antagonist mode. The note with it: read-out: MOR Antagonist IC50 ± SEM; cAMP Hunter CHO-K1 cells; versus EC90 of fentanyl.

As to `C[C@H]1[C@H]2Cc3ccc(O)cc3[C@]1(C)CCN2CCC1CCN(C)CC1` [Compound 28, (1R,5R,9R)-6,11-Dimethyl-3-(2-(1-methylpiperidin-4-yl)ethyl)-1,2,3,4,5,6-hexahydro-2,6-methanobenzo[d]azocin-8-ol], the IC50 is greater than 10 µM.
With `C[C@H]1[C@H]2Cc3ccc(O)cc3[C@]1(C)CCN2CCCc1ccc([N+](=O)[O-])cc1` [Compound 31, (1R,5R,9R)-6,11-Dimethyl-3-(3-(4-nitrophenyl)propyl)-1,2,3,4,5,6-hexahydro-2,6-methanobenzo[d]azocin-8-ol], the IC50 was greater than 10 µM.

For orientation: IC50 means the concentration needed to halve the response being measured.
